The results in this text go back to ChEMBL document CHEMBL3877245 (Eur J Med Chem, 2016).

Chains of the proteins cited; added tags and fusions are not shown. Lines headed by an entry give the natural chain unless they say otherwise; changes in a name come on top.
UniProt P12389: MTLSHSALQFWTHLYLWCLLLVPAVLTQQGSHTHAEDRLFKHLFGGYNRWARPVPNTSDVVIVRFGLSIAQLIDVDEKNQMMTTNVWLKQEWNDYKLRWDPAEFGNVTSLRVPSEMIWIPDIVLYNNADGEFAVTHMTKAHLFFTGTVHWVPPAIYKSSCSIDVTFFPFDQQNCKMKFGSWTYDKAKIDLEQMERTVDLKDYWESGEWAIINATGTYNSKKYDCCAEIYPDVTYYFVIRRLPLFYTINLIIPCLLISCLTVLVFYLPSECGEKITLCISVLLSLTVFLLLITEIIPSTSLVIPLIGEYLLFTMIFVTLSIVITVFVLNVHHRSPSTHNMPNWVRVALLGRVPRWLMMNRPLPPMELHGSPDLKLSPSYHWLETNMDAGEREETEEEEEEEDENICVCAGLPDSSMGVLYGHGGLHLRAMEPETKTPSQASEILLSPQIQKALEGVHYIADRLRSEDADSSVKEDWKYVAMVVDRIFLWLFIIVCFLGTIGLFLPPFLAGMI
UniProt P12392, whole entry: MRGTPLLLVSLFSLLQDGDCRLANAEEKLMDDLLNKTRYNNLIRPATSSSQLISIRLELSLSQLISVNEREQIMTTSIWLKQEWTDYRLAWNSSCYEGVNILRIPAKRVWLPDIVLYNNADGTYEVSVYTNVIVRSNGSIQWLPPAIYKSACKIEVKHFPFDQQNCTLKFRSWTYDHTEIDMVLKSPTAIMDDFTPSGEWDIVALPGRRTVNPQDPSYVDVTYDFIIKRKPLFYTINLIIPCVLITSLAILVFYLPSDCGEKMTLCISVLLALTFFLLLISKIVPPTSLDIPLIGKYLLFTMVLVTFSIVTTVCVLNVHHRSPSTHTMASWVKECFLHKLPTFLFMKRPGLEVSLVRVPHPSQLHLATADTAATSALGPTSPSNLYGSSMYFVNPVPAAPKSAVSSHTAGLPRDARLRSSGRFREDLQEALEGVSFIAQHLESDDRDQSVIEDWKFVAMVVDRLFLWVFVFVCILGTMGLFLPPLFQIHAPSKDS
UniProt Q05941, whole entry: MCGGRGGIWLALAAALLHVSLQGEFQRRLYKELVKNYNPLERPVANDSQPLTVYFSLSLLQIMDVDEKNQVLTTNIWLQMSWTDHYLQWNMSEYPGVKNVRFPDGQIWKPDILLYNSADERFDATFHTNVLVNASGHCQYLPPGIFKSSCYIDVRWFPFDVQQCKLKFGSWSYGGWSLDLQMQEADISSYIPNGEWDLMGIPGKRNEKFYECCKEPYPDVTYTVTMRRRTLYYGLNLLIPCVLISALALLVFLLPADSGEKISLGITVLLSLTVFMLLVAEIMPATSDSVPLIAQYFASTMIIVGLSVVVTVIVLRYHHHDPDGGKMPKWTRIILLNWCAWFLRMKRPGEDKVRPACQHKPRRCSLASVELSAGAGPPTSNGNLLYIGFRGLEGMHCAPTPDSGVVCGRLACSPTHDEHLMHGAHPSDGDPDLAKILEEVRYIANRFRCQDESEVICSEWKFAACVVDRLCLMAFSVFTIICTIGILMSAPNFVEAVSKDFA
UniProt P04757, whole entry: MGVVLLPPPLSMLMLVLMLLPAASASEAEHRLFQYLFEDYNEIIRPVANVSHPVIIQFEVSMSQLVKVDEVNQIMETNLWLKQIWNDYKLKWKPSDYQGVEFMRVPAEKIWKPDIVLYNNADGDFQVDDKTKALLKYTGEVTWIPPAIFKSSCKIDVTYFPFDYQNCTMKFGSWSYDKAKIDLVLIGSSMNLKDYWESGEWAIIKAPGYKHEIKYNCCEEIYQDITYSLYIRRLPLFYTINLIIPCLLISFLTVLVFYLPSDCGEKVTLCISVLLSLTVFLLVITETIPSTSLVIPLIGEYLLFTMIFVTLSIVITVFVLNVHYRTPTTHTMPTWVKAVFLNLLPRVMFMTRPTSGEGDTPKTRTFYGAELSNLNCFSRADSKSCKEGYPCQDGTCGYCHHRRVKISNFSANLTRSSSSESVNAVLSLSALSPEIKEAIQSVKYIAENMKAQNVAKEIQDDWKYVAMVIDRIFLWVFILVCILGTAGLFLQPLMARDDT
UniProt P17787, whole entry: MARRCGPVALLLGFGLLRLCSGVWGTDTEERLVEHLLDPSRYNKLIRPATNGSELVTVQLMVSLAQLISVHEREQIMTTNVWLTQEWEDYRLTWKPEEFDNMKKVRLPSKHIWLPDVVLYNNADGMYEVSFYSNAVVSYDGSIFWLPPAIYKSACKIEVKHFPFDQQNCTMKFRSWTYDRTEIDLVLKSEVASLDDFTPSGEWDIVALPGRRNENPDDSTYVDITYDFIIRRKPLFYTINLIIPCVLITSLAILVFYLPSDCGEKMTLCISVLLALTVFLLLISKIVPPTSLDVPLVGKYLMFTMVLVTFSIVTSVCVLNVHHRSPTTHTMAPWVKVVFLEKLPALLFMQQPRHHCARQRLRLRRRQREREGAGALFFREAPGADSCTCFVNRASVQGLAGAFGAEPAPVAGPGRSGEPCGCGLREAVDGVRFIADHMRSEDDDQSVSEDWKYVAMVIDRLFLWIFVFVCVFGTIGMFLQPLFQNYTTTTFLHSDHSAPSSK
UniProt P43681: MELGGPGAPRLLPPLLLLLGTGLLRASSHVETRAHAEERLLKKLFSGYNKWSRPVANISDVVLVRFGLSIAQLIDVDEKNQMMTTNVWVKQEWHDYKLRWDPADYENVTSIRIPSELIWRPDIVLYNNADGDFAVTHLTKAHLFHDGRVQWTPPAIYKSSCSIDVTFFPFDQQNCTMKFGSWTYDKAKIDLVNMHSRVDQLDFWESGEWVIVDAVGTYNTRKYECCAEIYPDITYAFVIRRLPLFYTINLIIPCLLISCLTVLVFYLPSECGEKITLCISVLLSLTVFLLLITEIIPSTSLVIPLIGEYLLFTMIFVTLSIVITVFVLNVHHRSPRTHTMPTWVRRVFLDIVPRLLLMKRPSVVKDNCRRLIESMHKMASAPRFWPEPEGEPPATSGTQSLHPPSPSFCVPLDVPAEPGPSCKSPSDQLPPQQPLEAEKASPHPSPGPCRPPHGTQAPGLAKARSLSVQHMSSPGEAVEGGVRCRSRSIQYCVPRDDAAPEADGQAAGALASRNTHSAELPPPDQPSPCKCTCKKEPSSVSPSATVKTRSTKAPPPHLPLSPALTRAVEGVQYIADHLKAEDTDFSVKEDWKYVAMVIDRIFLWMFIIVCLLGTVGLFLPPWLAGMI

Molecules are shown by their SMILES.

Data set [1] deals with Neuronal acetylcholine receptor; alpha2/beta4 (Rattus norvegicus) (UniProt P12389+P12392). To be noted: 10 uM.
Data set [2] has as its target Neuronal acetylcholine receptor subunit alpha-7 (Rattus norvegicus) (UniProt Q05941). Kind of data set: Displacement of [3H]epibatidine from rat alpha7 nAChR at 10 uM by liquid scintillation counting.
For another data set, the species on record is Rattus norvegicus. Kind of data set: Displacement of [3H]epibatidine from rat forebrain alpha7* nAChR at 10 uM by liquid scintillation counting. (In general: Loss of bound radioactivity is the signal in a displacement assay; it reports binding, not function.)
Data set [3] deals with alpha3beta4 nAChR (neuronal acetylcholine receptor alpha3/beta4) (Rattus norvegicus, UniProt P04757+P12392). Kind of data set: Displacement of [3H]epibatidine from rat alpha3beta4 nAChR at 10 uM by liquid scintillation counting. To be noted: probe [3H]epibatidine.
Data set [4] concerns the target T1, Neuronal acetylcholine receptor; alpha4/beta2 (Homo sapiens, UniProt P17787+P43681). Kind of data set: Antagonist activity at human alpha4beta2 expressed in human SH-EP1 cells assessed as reduction in carbamylcholine induced 86Rb+ efflux preincubated for 10 mins followed by carbamylcholine addition measured after 5 mins by Cherenkov counting. Type of data set: cell-based. The method in brief:
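Same 86Rb+-loaded cells and pH 7.4 efflux buffer. Cells lysed in 0.1 M NaOH/0.1% SDS and Cerenkov counted. Specific efflux = total minus nonspecific (mecamylamine-blocked); inactivation IC50 derived from inhibition of carbamylcholine response.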

The target of data set [5] is T1, Neuronal acetylcholine receptor; alpha4/beta2. The data set is described as follows: Agonist activity at human alpha4beta2 nAChR expressed in human SH-EP1 cells after 9.5 mins by 86Rb+ efflux assay. In kind it is cell-based. In outline:
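86Rb+ efflux: cells loaded with ~350,000 cpm 86Rb+ at least 4 h (typically overnight), rinsed with efflux buffer pH 7.4 (130 mM NaCl, 5.4 mM KCl, 2 mM CaCl2, 50 mM HEPES, 5 mM glucose). Test drug alone applied 9.5 min. Efflux normalized, after nonspecific subtraction, to specific efflux of fully efficacious carbamylcholine control; nonspecific defined with carbamylcholine plus mecamylamine; EC50 derived.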

A word on the inhibition: it is the drop in the measured response relative to a control, in per cent. Read a low inhibition as a response near the control. By IC50 is commonly meant the concentration needed to halve the response being measured. In general, pIC50 refers to the negative decadic logarithm of the IC50, by convention in mol/L. In general, EC50 refers to the concentration at which the effect is half-maximal. A lower EC50 goes with higher potency in that assay. A word on the pEC50: it is the negative decadic logarithm of the EC50, by convention in mol/L.

For `COCC[C@H]1C[C@@H]1c1cncc(N2CCCN(C)CC2)c1`, the inhibition (in data set [1]; in data set [2]; in the data set listed under Rattus norvegicus) was under 50% in each case. Moreover, the inhibition at 10 µM in data set [3] was under 50%.
With `COCC[C@@H]1C[C@H]1c1cncc(N2C[C@@H]3C[C@H]2CN3)c1`, the inhibition (in data set [1]; in data set [2]; in the data set listed under Rattus norvegicus) was under 50% throughout. Also, the inhibition at 10 µM in data set [3] was under 50%.
In the case of `COCC[C@@H]1C[C@H]1c1cncc(N2CCCNCC2)c1`, the inhibition (in data set [2]; in the data set filed under Rattus norvegicus) was under 50% throughout.
`COCC[C@H]1C[C@@H]1c1cncc(N2C[C@@H]3C[C@H]2CN3)c1`: the inhibition (in data set [2]; in the data set filed under Rattus norvegicus) was under 50% throughout.
On to `COCC[C@H]1C[C@@H]1c1cncc(N2CCCNCC2)c1`, for which the inhibition (in data set [2]; in the data set listed under Rattus norvegicus) was under 50% throughout.
Regarding `CN1CCCN(c2cncc(-c3cc(CCO)no3)c2)CC1`, the IC50 in data set [4] was over 1000 nM. Besides, the pIC50 in data set [4] (sh-ep1) is listed as under 6. Moreover, the inhibition (in data set [2]; in the data set filed under Rattus norvegicus) was under 50% each time. The same compound displayed an EC50 in data set [5] of over 1000 nM. In data set [5] (sh-ep1), this compound displayed a pEC50 of under 6.
In the case of `OCCc1cc(-c2cncc(N3CCCNCC3)c2)on1`, the inhibition (in data set [2]; in the data set filed under Rattus norvegicus) was under 50% each time.
